Reference: patent publication US20160159787A1, “Cis-tetrahydro-spiro(cyclohexane-1, 1' -pyrido[3,4-b]indole)-4-amine Compounds” (published 2016)

Chains of the proteins cited; added tags and fusions are not shown.
UniProt P41146, whole entry: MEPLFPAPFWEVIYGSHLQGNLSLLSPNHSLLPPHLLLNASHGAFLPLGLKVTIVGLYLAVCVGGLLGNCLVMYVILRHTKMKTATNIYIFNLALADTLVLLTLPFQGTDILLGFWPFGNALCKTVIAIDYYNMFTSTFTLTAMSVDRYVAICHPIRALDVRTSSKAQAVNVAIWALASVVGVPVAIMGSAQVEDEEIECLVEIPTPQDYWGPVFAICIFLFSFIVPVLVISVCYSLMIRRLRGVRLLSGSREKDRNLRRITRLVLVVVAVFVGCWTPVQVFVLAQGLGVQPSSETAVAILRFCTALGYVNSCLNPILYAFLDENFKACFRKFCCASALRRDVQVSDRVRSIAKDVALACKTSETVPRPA
UniProt P35372, whole entry: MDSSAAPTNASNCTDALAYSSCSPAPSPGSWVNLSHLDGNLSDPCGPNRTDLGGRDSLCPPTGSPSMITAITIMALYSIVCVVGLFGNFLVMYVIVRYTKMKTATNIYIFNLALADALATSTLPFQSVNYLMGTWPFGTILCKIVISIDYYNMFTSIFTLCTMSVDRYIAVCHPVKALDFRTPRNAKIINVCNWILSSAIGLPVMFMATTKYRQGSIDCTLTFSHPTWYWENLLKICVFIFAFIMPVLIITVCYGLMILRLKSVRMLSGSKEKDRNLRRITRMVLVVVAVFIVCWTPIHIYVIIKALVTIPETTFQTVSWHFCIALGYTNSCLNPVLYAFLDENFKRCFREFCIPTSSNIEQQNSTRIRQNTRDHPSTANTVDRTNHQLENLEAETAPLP

Assays:
[1] = molecular target: ORL1 receptor (Homo sapiens, UniProt P41146); assay: ORL1 receptor binding (3H-nociceptin/orphanin FQ, CHO-ORL1 membranes); conditions: read-out: Ki (ORL1); binding affinity
Procedure: Methods for determining the Ki value on the ORL1 receptor are known to persons skilled in the art. The determination is preferably carried out in a receptor binding assay with ^3H-nociceptin/orphanin FQ with membranes of recombinant CHO-ORL1 cells. This test system is preferably carried out according to the method put forward by Ardati et al. (Mol. Pharmacol., 51, 1997, p. 816-824). The concentration of ^3H-nociceptin/orphanin FQ in these tests is preferably 0.5 nM. The binding assays are preferably carried out with in each case 20 μg of membrane protein per 200 μl batch in 50 mM Hepes, pH 7.4, 10 mM MgCl2 and 1 mM EDTA. Binding to the ORL1 receptor is preferably determined using in each case 1 mg of WGA-SPA beads (Amersham-Pharmacia, Freiburg) by incubating the batch for one hour at RT and then measuring in a Trilux scintillation counter (Wallac, Finland).

[2] = molecular target: human μ-opiate receptor (Homo sapiens, UniProt P35372); assay: μ-opioid receptor binding ([3H]-naloxone, CHO-K1 membranes); conditions: read-out: Ki (μ); binding affinity
Procedure: Methods of determining the Ki value on the μ-opioid receptor are known to persons skilled in the art. The determination is preferably carried out in a homogeneous batch in microtitre plates. To that end, serial dilutions of the substances to be tested are preferably incubated for 90 minutes at room temperature with a receptor membrane preparation (15-40 μg of protein per 250 μl of incubation batch) of CHO-K1 cells which express the human μ-opiate receptor (RB-HOM receptor membrane preparation from NEN, Zaventem, Belgium) in the presence of 1 nmol/l of the radioactive ligand [^3H]-naloxone (NET719, NEN, Zaventem, Belgium) and 1 mg of WGA-SPA beads (wheat germ agglutinin SPA beads from Amersham/Pharmacia, Freiburg, Germany), in a total volume of 250 There is preferably used as the incubation buffer 50 mmol/l of Tris-HCl supplemented with 0.05 wt. % sodium azide and 0.06 wt. % bovine serum albumin. For the determination of non-specific binding, 25 μmol/l of naloxone are preferably added in addition. When the 90-minute incubation time is complete, the microtitre plates are preferably centrifuged off for 20 minutes at 1000 g and the radioactivity is measured in a β counter (Microbeta-Trilux, PerkinElmer Wallac, Freiburg, Germany). The percentage displacement of the radioactive ligand from its binding to the human μ-opiate receptor at a concentration of the test substances of preferably 1 μmol/l is determined and indicated as the percentage inhibition (% inhibition) of specific binding. On the basis of the percentage displacement by different concentrations of the compounds to be tested it is possible to calculate IC50 inhibitory concentrations, which effect 50% displacement of the radioactive ligand. The Ki values for the test substances can be calculated therefrom by conversion by means of the Cheng-Prusoff equation.

SMILES	Ki [1]	Ki [2]
CN(C)[C@]1(c2cccc(F)c2)CC[C@@]2(CC1)NCCc1c3ccccc3[nH]c12	12 nM	31 nM
CN(C)[C@]1(c2cccc(F)c2)CC[C@]2(CC1)NCCc1c3ccccc3[nH]c12	0.4 nM	0.5 nM
CN(C)[C@]1(c2ccsc2)CC[C@@]2(CC1)OCCc1c3cc(F)ccc3[nH]c12	60 nM	120 nM
CN(C)[C@]1(c2cccs2)CC[C@@]2(CC1)OCCc1c3ccccc3[nH]c12	31 nM	92 nM
